Read-out in assay [1]: Interleukin 17F (IL17F), IL17F (gene 112744)
Briefly: BSK_BT_xIL17F: BioMAP Diversity Plus: BT Assay for Interleukin 17F (IL17F) Biomarker Activity (AID 2284243). Conditions: primary human B cells with PBMC. In a few lines: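 Compound was added to co-cultures of human B cells and PBMC. After 24 hours, IL-17F released into the medium was measured with LumineX xMAP technology. Responses were then fitted upward relative to DMSO.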

Read-out in assay [2]: Actin alpha 1 (ACTA1), ACTA1 (gene 58)
The assay can be described thus: BSK_MyoF_ACTA1: BioMAP Diversity Plus: MyoF Assay for Actin alpha 1 (ACTA1) Biomarker Activity (AID 2284244). Conditions: primary human lung fibroblasts. In a few lines: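 Cells were exposed to chemical for 24 h before a-SMA levels were quantified by ELISA in human lung fibroblasts. Increases were fitted against DMSO as negative control; parallel SRB staining (0.1% after 10% TCA fixation, 560 nm) assessed cytotoxicity.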

Read-out in assay [3]: Interleukin 2 (IL2), IL2 (gene 3558)
Briefly: BSK_BT_xIL2: BioMAP Diversity Plus: BT Assay for Interleukin 2 (IL2) Biomarker Activity (AID 2284245). Conditions: primary human B cells with PBMC. In a few lines: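 The BT system combines human B cells with peripheral blood mononuclear cells. Twenty-four hours after chemical dosing, secreted IL-2 was measured with xMAP bead technology, and responses were analyzed as increases over DMSO controls.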

Read-out in assay [4]: Basic fibroblast growth factor (bFGF), FGF2 (gene 2247)
Briefly: BSK_MyoF_bFGF: BioMAP Diversity Plus: MyoF Assay for Basic fibroblast growth factor (bFGF) Biomarker Activity (AID 2284246). Conditions: primary human lung fibroblasts. In a few lines:
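Chemicals are added to human lung fibroblast cultures and incubated 24 h. bFGF is then measured by ELISA, while parallel cultures receive SRB staining for total protein as a cytotoxicity check. Data are fitted upward against DMSO.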

Read-out in assay [5]: Collagen IV, COL4A1 (gene 1282)
Briefly: BSK_MyoF_CollagenIV: BioMAP Diversity Plus: MyoF Assay for Collagen IV Biomarker Activity (AID 2284247). Conditions: primary human lung fibroblasts. The method in brief:
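Human lung fibroblast system, 24 h chemical exposure. Endpoint: Collagen IV by ELISA, upward fit vs DMSO.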

Read-out in assay [6]: Plasminogen activator inhibitor-1 (PAI1), SERPINE1 (gene 5054)
Briefly: BSK_MyoF_PAI1: BioMAP Diversity Plus: MyoF Assay for Plasminogen activator inhibitor-1 (PAI1) Biomarker Activity (AID 2284256).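 Note: PAI-1 protein level measured by ELISA in fibroblast cultures; PAI-1 read 24 h after compound addition.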 Conditions: primary human lung fibroblasts. The method in brief: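 Primary human lung fibroblasts are dosed and incubated 24 h. PAI-1 is then measured by ELISA, while parallel cultures undergo SRB staining for overt cytotoxicity. Increases over DMSO define activity.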

Read-out in assay [7]: Interleukin-8 (IL8), CXCL8 (gene 3576)
The assay can be described thus: BSK_MyoF_IL8: BioMAP Diversity Plus: MyoF Assay for Interleukin-8 (IL8) Biomarker Activity (AID 2284261). Conditions: primary human lung fibroblasts. In a few lines: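 IL-8 levels were measured by ELISA in human lung fibroblasts harvested 24 h after compound addition. Responses were analysed as gain of signal over the DMSO baseline.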

Read-out in the next assay: Decorin, DCN (gene 1634)
Briefly: BSK_MyoF_Decorin: BioMAP Diversity Plus: MyoF Assay for Decorin Biomarker Activity (AID 2284265). Conditions: primary human lung fibroblasts. The method in brief:
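Compound is added to lung fibroblast cultures; cells incubate 24 h; decorin is then measured by ELISA; the response is analysed upward against DMSO controls.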

Assay [8] can be described thus: BSK_MyoF_SRB: Viability Assessment in the BioMAP Diversity Plus: MyoF Assay (AID 2284267).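 Note: total protein by SRB absorbance in parallel cultures as cytotoxicity measure; cells assessed 24 h after compound addition.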 Conditions: primary human lung fibroblasts. The method in brief: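 Confluent human lung fibroblasts were exposed to test chemicals for 24 h. Parallel wells were then fixed in 10% TCA, stained with 0.1% sulforhodamine B and measured at 560 nm. DMSO served as baseline for curve fitting.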

Read-out in assay [9]: Matrix Metallopeptidase 1 (MMP1), MMP1 (gene 4312)
The assay can be described thus: BSK_MyoF_MMP1: BioMAP Diversity Plus: MyoF Assay for Matrix Metallopeptidase 1 (MMP1) Biomarker Activity (AID 2284268). Conditions: primary human lung fibroblasts. The method in brief:
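Lung fibroblast cultures were dosed with test chemicals and, after 24 h, MMP1 levels were measured by ELISA; responses were referenced to DMSO and analysed for increases.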

Read-out in assay [10]: TIMP metallopeptidase inhibitor 1 (TIMP1), TIMP1 (gene 7076)
Briefly: BSK_MyoF_TIMP1: BioMAP Diversity Plus: MyoF Assay for TIMP metallopeptidase inhibitor 1 (TIMP1) Biomarker Activity (AID 2284269). Conditions: primary human lung fibroblasts. In a few lines: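 ELISA quantified TIMP-1 levels after 24 h dosing of primary human lung fibroblasts, with DMSO as baseline. Parallel SRB total protein staining (0.1% SRB after TCA fixation, 560 nm) flagged overt cytotoxicity.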

A short description of assay [11]: CCTE_Padilla_ZF_Score.General: CCTE's 144 Hour Post-fertilization zebrafish Assay Score for General Malformation, Padilla Lab (AID 2284411). In a few lines:
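Malformation, death and hatching were scored at 6 dpf by two blinded observers under a stereo microscope. Embryos were dosed singly from 6-8 hpf in sealed plates of 10% Hanks' at 26C and rinsed on 5 dpf; DMSO baseline.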

For the next assay, the system named is IYD (gene 389434). The assay can be described thus: CCTE_GLTED_hIYD: CCTE's human Iodotyrosine Deiodinase (xIYD) Inhibition Assay, Great Lakes Toxicology and Ecology Division (GLTED) Lab (AID 2284317; active = hit-call score of the fitted dose curve at least 0.9, where 1 is the maximum;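 note: cell-free human IYD enzyme made in baculovirus insect cells; iodide freed from monoiodotyrosine measured by cerium arsenite color change at 420 nm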). In a few lines:
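Deiodination of MIT by insect-cell-produced human IYD is measured after a 3 h incubation with test chemical. Free iodide passes through a Dowex column and accelerates Sandell-Kolthoff Ce4+ reduction, read at 420 nm; run in triplicate.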

The entries are a selection whose mix differs from that of the whole data set. Calls of active or inactive are those of the source. Rule for the calls, unless noted: active = hit-call score of the fitted dose curve at least 0.9, where 1 is the maximum; inactive = score below 0.9.

As to `CC(C)OP(OC(C)C)OC(C)C`, the outcome in assay [1], in assay [2], in assay [3], in assay [4], in assay [5] and in [6] was inactive. The outcome was “inactive” in assay [7]; “inactive” in the assay with Decorin, DCN (gene 1634); “inactive” in assay [8]; “inactive” in assay [9]; “inactive” in assay [10]; “inactive” in [11].

One may read the AC50 as the concentration at which the activity in the assay is half-maximal. Take `O=[N+]([O-])c1ccccc1[N+](=O)[O-]`: the AC50 in the assay on IYD (gene 389434) is active: 60.7 µM.

These data come from PubChem BioAssay (EPA / NIEHS).
